According to ChEMBL document CHEMBL3885861, “Open TG-GATES”:

Key:
Rattus norvegicus [1] = species: Rattus norvegicus; assay: Open TG-GATES - Regimen: Single; format: toxicity, organism-based, Sprague-Dawley; design: regimen Single, gender Male, age 6 weeks; settings: in vivo, po, route gavage
Rattus norvegicus [2] = species: Rattus norvegicus; assay: Open TG-GATES - Regimen: Daily Repeat; format: toxicity, organism-based, Sprague-Dawley; design: regimen Daily Repeat, gender Male, age 6 weeks; settings: in vivo, po, tissue Liver, route gavage
[3] = 0 mg/kg, 3 h, tissue Blood, dose level Control
[4] = 0 mg/kg, 6 h, tissue Blood, dose level Control
[5] = 0 mg/kg, 6 h, tissue Plasma, dose level Control
[6] = 0 mg/kg, 9 h, tissue Blood, dose level Control
[7] = 0 mg/kg, 24 h, tissue Blood, dose level Control
[8] = 0 mg/kg, 24 h, tissue Plasma, dose level Control
[9] = 200 mg/kg, 3 h, tissue Blood, dose level Low
[10] = 200 mg/kg, 3 h, tissue Plasma, dose level Low
[11] = 200 mg/kg, 6 h, tissue Blood, dose level Low
[12] = 200 mg/kg, 6 h, tissue Plasma, dose level Low
[13] = 200 mg/kg, 9 h, tissue Blood, dose level Low
[14] = 200 mg/kg, 9 h, tissue Plasma, dose level Low
[15] = 200 mg/kg, 24 h, tissue Blood, dose level Low
[16] = 200 mg/kg, 24 h, tissue Plasma, dose level Low
[17] = 600 mg/kg, 3 h, tissue Blood, dose level Middle
[18] = 600 mg/kg, 3 h, tissue Plasma, dose level Middle
[19] = 600 mg/kg, 6 h, tissue Blood, dose level Middle
[20] = 600 mg/kg, 6 h, tissue Plasma, dose level Middle
[21] = 600 mg/kg, 9 h, tissue Blood, dose level Middle
[22] = 600 mg/kg, 9 h, tissue Plasma, dose level Middle
[23] = 600 mg/kg, 24 h, tissue Blood, dose level Middle
[24] = 600 mg/kg, 24 h, tissue Plasma, dose level Middle
[25] = 2000 mg/kg, 3 h, tissue Blood, dose level High
[26] = 2000 mg/kg, 3 h, tissue Plasma, dose level High
[27] = 2000 mg/kg, 6 h, tissue Blood, dose level High
[28] = 2000 mg/kg, 6 h, tissue Plasma, dose level High
[29] = 2000 mg/kg, 9 h, tissue Blood, dose level High
[30] = 2000 mg/kg, 9 h, tissue Plasma, dose level High
[31] = 2000 mg/kg, 24 h, tissue Blood, dose level High

Q: With `COc1cc2ncnc(Nc3ccc(F)c(Cl)c3)c2cc1OCCCN1CCOCC1` [GEFITINIB] as the compound, how does the Hb (Rattus norvegicus [1]; [3]) read?
A: 13.1 g/dL

Q: And the MCHC (Rattus norvegicus [1]; [3])?
A: 33.1%

Q: And the Plat (Rattus norvegicus [1]; [3])?
A: 107.4 x10_4/uL

Q: And the WBC (Rattus norvegicus [1]; [3])?
A: 95.3 x10_2/uL

Q: What about the BUN (Rattus norvegicus [1]; 0 mg/kg, 3 h, tissue Plasma, dose level Control) of the same compound?
A: 13 mg/dL

Q: And the Hb (Rattus norvegicus [1]; [4])?
A: 13.4 g/dL

Q: What about the MCHC (Rattus norvegicus [1]; [4]) of the same compound?
A: 33.2%

Q: What about the MCV (Rattus norvegicus [1]; [4]) of the same compound?
A: 64.5 fL

Q: And the Plat (Rattus norvegicus [1]; [4])?
A: 111.8 x10_4/uL

Q: And the BUN (Rattus norvegicus [1]; [5])?
A: 11.3 mg/dL

Q: And the GLC (Rattus norvegicus [1]; [5])?
A: 188.4 mg/dL

Q: And the Hb (Rattus norvegicus [1]; [6])?
A: 12.8 g/dL

Q: What about the MCHC (Rattus norvegicus [1]; [6]) of the same compound?
A: 33.2%

Q: And the MCV (Rattus norvegicus [1]; [6])?
A: 64.1 fL

Q: What about the Plat (Rattus norvegicus [1]; [6]) of the same compound?
A: 116.7 x10_4/uL

Q: And the BUN (Rattus norvegicus [1]; 0 mg/kg, 9 h, tissue Plasma, dose level Control)?
A: 12.3 mg/dL

Q: And the Hb (Rattus norvegicus [1]; [7])?
A: 12.9 g/dL

Q: And the MCV (Rattus norvegicus [1]; [7])?
A: 64.4 fL

Q: And the Plat (Rattus norvegicus [1]; [7])?
A: 129 x10_4/uL

Q: What about the WBC (Rattus norvegicus [1]; [7]) of the same compound?
A: 91.8 x10_2/uL

Q: And the ALP (Rattus norvegicus [1]; [8])?
A: 1878 IU/L

Q: And the BUN (Rattus norvegicus [1]; [8])?
A: 16 mg/dL

Q: And the GLC (Rattus norvegicus [1]; [8])?
A: 184 mg/dL

Q: And the Hb (Rattus norvegicus [1]; [9])?
A: 12.1 g/dL

Q: What about the MCHC (Rattus norvegicus [1]; [9]) of the same compound?
A: 33.5%

Q: And the MCV (Rattus norvegicus [1]; [9])?
A: 62.6 fL

Q: What about the Plat (Rattus norvegicus [1]; [9]) of the same compound?
A: 124.9 x10_4/uL

Q: And the WBC (Rattus norvegicus [1]; [9])?
A: 97.4 x10_2/uL

Q: And the BUN (Rattus norvegicus [1]; [10])?
A: 13.5 mg/dL

Q: What about the GLC (Rattus norvegicus [1]; [10]) of the same compound?
A: 199.4 mg/dL

Q: What about the MCHC (Rattus norvegicus [1]; [11]) of the same compound?
A: 33.4%

Q: What about the MCV (Rattus norvegicus [1]; [11]) of the same compound?
A: 64.6 fL

Q: What about the Plat (Rattus norvegicus [1]; [11]) of the same compound?
A: 110.8 x10_4/uL

Q: And the WBC (Rattus norvegicus [1]; [11])?
A: 84.7 x10_2/uL

Q: What about the BUN (Rattus norvegicus [1]; [12]) of the same compound?
A: 11.2 mg/dL

Q: What about the GLC (Rattus norvegicus [1]; [12]) of the same compound?
A: 194.6 mg/dL

Q: What about the Hb (Rattus norvegicus [1]; [13]) of the same compound?
A: 12.8 g/dL

Q: What about the MCHC (Rattus norvegicus [1]; [13]) of the same compound?
A: 33.1%

Q: What about the Plat (Rattus norvegicus [1]; [13]) of the same compound?
A: 132.5 x10_4/uL

Q: And the WBC (Rattus norvegicus [1]; [13])?
A: 78.8 x10_2/uL

Q: What about the GLC (Rattus norvegicus [1]; [14]) of the same compound?
A: 178.2 mg/dL

Q: What about the LDH (Rattus norvegicus [1]; [14]) of the same compound?
A: 188.4 IU/L

Q: What about the Hb (Rattus norvegicus [1]; [15]) of the same compound?
A: 13.1 g/dL

Q: And the MCHC (Rattus norvegicus [1]; [15])?
A: 32.1%

Q: And the MCV (Rattus norvegicus [1]; [15])?
A: 64.1 fL

Q: And the Plat (Rattus norvegicus [1]; [15])?
A: 117 x10_4/uL

Q: And the WBC (Rattus norvegicus [1]; [15])?
A: 127.3 x10_2/uL

Q: What about the BUN (Rattus norvegicus [1]; [16]) of the same compound?
A: 17.7 mg/dL

Q: What about the GLC (Rattus norvegicus [1]; [16]) of the same compound?
A: 177.6 mg/dL

Q: And the MCHC (Rattus norvegicus [1]; [17])?
A: 33.5%

Q: What about the MCV (Rattus norvegicus [1]; [17]) of the same compound?
A: 63 fL

Q: And the Plat (Rattus norvegicus [1]; [17])?
A: 107.8 x10_4/uL

Q: What about the WBC (Rattus norvegicus [1]; [17]) of the same compound?
A: 86.6 x10_2/uL

Q: What about the BUN (Rattus norvegicus [1]; [18]) of the same compound?
A: 12.6 mg/dL

Q: What about the GLC (Rattus norvegicus [1]; [18]) of the same compound?
A: 189.2 mg/dL

Q: What about the Hb (Rattus norvegicus [1]; [19]) of the same compound?
A: 12.2 g/dL

Q: What about the MCHC (Rattus norvegicus [1]; [19]) of the same compound?
A: 33.5%

Q: What about the MCV (Rattus norvegicus [1]; [19]) of the same compound?
A: 62.9 fL

Q: And the WBC (Rattus norvegicus [1]; [19])?
A: 93.2 x10_2/uL

Q: And the BUN (Rattus norvegicus [1]; [20])?
A: 13 mg/dL

Q: What about the GLC (Rattus norvegicus [1]; [20]) of the same compound?
A: 193 mg/dL

Q: What about the Hb (Rattus norvegicus [1]; [21]) of the same compound?
A: 12.3 g/dL

Q: And the MCHC (Rattus norvegicus [1]; [21])?
A: 33.5%

Q: What about the MCV (Rattus norvegicus [1]; [21]) of the same compound?
A: 63 fL

Q: And the Plat (Rattus norvegicus [1]; [21])?
A: 109.8 x10_4/uL

Q: And the WBC (Rattus norvegicus [1]; [21])?
A: 87.1 x10_2/uL

Q: And the BUN (Rattus norvegicus [1]; [22])?
A: 11.6 mg/dL

Q: And the GLC (Rattus norvegicus [1]; [22])?
A: 182.2 mg/dL

Q: And the Hb (Rattus norvegicus [1]; [23])?
A: 12.9 g/dL

Q: And the MCV (Rattus norvegicus [1]; [23])?
A: 64.1 fL

Q: And the Plat (Rattus norvegicus [1]; [23])?
A: 119.7 x10_4/uL

Q: What about the BUN (Rattus norvegicus [1]; [24]) of the same compound?
A: 15.2 mg/dL

Q: And the GLC (Rattus norvegicus [1]; [24])?
A: 174.6 mg/dL

Q: What about the Hb (Rattus norvegicus [1]; [25]) of the same compound?
A: 12.6 g/dL

Q: What about the MCHC (Rattus norvegicus [1]; [25]) of the same compound?
A: 33.8%

Q: What about the MCV (Rattus norvegicus [1]; [25]) of the same compound?
A: 63 fL

Q: And the Plat (Rattus norvegicus [1]; [25])?
A: 116 x10_4/uL

Q: And the WBC (Rattus norvegicus [1]; [25])?
A: 81.9 x10_2/uL

Q: And the BUN (Rattus norvegicus [1]; [26])?
A: 14.8 mg/dL

Q: What about the GLC (Rattus norvegicus [1]; [26]) of the same compound?
A: 210 mg/dL

Q: What about the Hb (Rattus norvegicus [1]; [27]) of the same compound?
A: 12.5 g/dL

Q: And the MCHC (Rattus norvegicus [1]; [27])?
A: 33.5%

Q: And the MCV (Rattus norvegicus [1]; [27])?
A: 63.4 fL

Q: What about the Neu (Rattus norvegicus [1]; [27]) of the same compound?
A: 18.8%

Q: And the Plat (Rattus norvegicus [1]; [27])?
A: 112.9 x10_4/uL

Q: What about the WBC (Rattus norvegicus [1]; [27]) of the same compound?
A: 94.7 x10_2/uL

Q: And the BUN (Rattus norvegicus [1]; [28])?
A: 11.4 mg/dL

Q: And the GLC (Rattus norvegicus [1]; [28])?
A: 189.4 mg/dL

Q: What about the Hb (Rattus norvegicus [1]; [29]) of the same compound?
A: 12.5 g/dL

Q: And the MCHC (Rattus norvegicus [1]; [29])?
A: 33.4%

Q: And the MCV (Rattus norvegicus [1]; [29])?
A: 63 fL

Q: And the Plat (Rattus norvegicus [1]; [29])?
A: 110.9 x10_4/uL

Q: What about the WBC (Rattus norvegicus [1]; [29]) of the same compound?
A: 80.9 x10_2/uL

Q: And the BUN (Rattus norvegicus [1]; [30])?
A: 10.8 mg/dL

Q: What about the GLC (Rattus norvegicus [1]; [30]) of the same compound?
A: 192.6 mg/dL

Q: And the Hb (Rattus norvegicus [1]; [31])?
A: 13.2 g/dL

Q: What about the MCHC (Rattus norvegicus [1]; [31]) of the same compound?
A: 32.6%

Q: And the MCV (Rattus norvegicus [1]; [31])?
A: 64.3 fL

Q: What about the WBC (Rattus norvegicus [1]; [31]) of the same compound?
A: 81.8 x10_2/uL

Q: What about the GLC (Rattus norvegicus [1]; 2000 mg/kg, 24 h, tissue Plasma, dose level High) of the same compound?
A: 182.5 mg/dL

Q: How did the LIVER (Rattus norvegicus [2]; 0 mg/kg, 72 h, dose level Control, time 3 day) turn out when `CCCCC1C(=O)N(c2ccccc2)N(c2ccccc2)C1=O` [PHENYLBUTAZONE] was run?
A: 12.5 g

Q: And the LIVER (Rattus norvegicus [2]; 0 mg/kg, […], dose level Control, time 14 day)?
A: 14.5 g

Q: What about the LIVER (Rattus norvegicus [2]; 0 mg/kg, […], dose level Control, time 28 day) of the same compound?
A: 15.3 g

Q: What about the LIVER (Rattus norvegicus [2]; 20 mg/kg, 72 h, dose level Low, time 3 day) of the same compound?
A: 11.6 g

Q: And the LIVER (Rattus norvegicus [2]; 20 mg/kg, […], dose level Low, time 7 day)?
A: 13.1 g

Q: What about the LIVER (Rattus norvegicus [2]; 20 mg/kg, […], dose level Low, time 14 day) of the same compound?
A: 15.3 g

Q: What about the LIVER (Rattus norvegicus [2]; 20 mg/kg, […], dose level Low, time 28 day) of the same compound?
A: 16.4 g

Q: What about the LIVER (Rattus norvegicus [2]; 60 mg/kg, 72 h, dose level Middle, time 3 day) of the same compound?
A: 12.3 g

Q: And the LIVER (Rattus norvegicus [2]; 60 mg/kg, […], dose level Middle, time 7 day)?
A: 13.6 g

Q: And the LIVER (Rattus norvegicus [2]; 60 mg/kg, […], dose level Middle, time 14 day)?
A: 14.4 g

Q: And the LIVER (Rattus norvegicus [2]; 60 mg/kg, […], dose level Middle, time 28 day)?
A: 19.3 g

Q: What about the LIVER (Rattus norvegicus [2]; 200 mg/kg, 72 h, dose level High, time 3 day) of the same compound?
A: 12.9 g

Q: What about the LIVER (Rattus norvegicus [2]; 200 mg/kg, […], dose level High, time 7 day) of the same compound?
A: 13.9 g

Q: And the LIVER (Rattus norvegicus [2]; 200 mg/kg, […], dose level High, time 14 day)?
A: 15.5 g

Q: And the LIVER (Rattus norvegicus [2]; 200 mg/kg, […], dose level High, time 28 day)?
A: 16.2 g
